Only a part is listed here, and it is no random draw. Activity calls are given as the source filed them. Calls follow the shape of the dose curve; as a rule, active = well fitted inhibition curve with a large enough effect in the polarisation, with a control signal flat (not every such curve was filed as active); inconclusive = small, poorly fitted or top-dose-only effect, or effect the other way, or a change in a side signal; inactive = no such curve, though single readings can be large or run the other way; the % refers to the polarisation.
Each molecule was assayed against Histone-lysine N-methyltransferase 2A (Homo sapiens) (UniProt Q03164) (assay: qHTS Fluorescence Polarization Assay for Inhibitors of MLL CXXC domain - DNA interaction). Conditions: MLL-CXXC / FITC-HOXA9 DNA fluorescence polarization; at 115 µM (top of the series) unless noted.

The chains behind the UniProt entries cited, without tags or fusion partners.
UniProt Q03164, whole entry: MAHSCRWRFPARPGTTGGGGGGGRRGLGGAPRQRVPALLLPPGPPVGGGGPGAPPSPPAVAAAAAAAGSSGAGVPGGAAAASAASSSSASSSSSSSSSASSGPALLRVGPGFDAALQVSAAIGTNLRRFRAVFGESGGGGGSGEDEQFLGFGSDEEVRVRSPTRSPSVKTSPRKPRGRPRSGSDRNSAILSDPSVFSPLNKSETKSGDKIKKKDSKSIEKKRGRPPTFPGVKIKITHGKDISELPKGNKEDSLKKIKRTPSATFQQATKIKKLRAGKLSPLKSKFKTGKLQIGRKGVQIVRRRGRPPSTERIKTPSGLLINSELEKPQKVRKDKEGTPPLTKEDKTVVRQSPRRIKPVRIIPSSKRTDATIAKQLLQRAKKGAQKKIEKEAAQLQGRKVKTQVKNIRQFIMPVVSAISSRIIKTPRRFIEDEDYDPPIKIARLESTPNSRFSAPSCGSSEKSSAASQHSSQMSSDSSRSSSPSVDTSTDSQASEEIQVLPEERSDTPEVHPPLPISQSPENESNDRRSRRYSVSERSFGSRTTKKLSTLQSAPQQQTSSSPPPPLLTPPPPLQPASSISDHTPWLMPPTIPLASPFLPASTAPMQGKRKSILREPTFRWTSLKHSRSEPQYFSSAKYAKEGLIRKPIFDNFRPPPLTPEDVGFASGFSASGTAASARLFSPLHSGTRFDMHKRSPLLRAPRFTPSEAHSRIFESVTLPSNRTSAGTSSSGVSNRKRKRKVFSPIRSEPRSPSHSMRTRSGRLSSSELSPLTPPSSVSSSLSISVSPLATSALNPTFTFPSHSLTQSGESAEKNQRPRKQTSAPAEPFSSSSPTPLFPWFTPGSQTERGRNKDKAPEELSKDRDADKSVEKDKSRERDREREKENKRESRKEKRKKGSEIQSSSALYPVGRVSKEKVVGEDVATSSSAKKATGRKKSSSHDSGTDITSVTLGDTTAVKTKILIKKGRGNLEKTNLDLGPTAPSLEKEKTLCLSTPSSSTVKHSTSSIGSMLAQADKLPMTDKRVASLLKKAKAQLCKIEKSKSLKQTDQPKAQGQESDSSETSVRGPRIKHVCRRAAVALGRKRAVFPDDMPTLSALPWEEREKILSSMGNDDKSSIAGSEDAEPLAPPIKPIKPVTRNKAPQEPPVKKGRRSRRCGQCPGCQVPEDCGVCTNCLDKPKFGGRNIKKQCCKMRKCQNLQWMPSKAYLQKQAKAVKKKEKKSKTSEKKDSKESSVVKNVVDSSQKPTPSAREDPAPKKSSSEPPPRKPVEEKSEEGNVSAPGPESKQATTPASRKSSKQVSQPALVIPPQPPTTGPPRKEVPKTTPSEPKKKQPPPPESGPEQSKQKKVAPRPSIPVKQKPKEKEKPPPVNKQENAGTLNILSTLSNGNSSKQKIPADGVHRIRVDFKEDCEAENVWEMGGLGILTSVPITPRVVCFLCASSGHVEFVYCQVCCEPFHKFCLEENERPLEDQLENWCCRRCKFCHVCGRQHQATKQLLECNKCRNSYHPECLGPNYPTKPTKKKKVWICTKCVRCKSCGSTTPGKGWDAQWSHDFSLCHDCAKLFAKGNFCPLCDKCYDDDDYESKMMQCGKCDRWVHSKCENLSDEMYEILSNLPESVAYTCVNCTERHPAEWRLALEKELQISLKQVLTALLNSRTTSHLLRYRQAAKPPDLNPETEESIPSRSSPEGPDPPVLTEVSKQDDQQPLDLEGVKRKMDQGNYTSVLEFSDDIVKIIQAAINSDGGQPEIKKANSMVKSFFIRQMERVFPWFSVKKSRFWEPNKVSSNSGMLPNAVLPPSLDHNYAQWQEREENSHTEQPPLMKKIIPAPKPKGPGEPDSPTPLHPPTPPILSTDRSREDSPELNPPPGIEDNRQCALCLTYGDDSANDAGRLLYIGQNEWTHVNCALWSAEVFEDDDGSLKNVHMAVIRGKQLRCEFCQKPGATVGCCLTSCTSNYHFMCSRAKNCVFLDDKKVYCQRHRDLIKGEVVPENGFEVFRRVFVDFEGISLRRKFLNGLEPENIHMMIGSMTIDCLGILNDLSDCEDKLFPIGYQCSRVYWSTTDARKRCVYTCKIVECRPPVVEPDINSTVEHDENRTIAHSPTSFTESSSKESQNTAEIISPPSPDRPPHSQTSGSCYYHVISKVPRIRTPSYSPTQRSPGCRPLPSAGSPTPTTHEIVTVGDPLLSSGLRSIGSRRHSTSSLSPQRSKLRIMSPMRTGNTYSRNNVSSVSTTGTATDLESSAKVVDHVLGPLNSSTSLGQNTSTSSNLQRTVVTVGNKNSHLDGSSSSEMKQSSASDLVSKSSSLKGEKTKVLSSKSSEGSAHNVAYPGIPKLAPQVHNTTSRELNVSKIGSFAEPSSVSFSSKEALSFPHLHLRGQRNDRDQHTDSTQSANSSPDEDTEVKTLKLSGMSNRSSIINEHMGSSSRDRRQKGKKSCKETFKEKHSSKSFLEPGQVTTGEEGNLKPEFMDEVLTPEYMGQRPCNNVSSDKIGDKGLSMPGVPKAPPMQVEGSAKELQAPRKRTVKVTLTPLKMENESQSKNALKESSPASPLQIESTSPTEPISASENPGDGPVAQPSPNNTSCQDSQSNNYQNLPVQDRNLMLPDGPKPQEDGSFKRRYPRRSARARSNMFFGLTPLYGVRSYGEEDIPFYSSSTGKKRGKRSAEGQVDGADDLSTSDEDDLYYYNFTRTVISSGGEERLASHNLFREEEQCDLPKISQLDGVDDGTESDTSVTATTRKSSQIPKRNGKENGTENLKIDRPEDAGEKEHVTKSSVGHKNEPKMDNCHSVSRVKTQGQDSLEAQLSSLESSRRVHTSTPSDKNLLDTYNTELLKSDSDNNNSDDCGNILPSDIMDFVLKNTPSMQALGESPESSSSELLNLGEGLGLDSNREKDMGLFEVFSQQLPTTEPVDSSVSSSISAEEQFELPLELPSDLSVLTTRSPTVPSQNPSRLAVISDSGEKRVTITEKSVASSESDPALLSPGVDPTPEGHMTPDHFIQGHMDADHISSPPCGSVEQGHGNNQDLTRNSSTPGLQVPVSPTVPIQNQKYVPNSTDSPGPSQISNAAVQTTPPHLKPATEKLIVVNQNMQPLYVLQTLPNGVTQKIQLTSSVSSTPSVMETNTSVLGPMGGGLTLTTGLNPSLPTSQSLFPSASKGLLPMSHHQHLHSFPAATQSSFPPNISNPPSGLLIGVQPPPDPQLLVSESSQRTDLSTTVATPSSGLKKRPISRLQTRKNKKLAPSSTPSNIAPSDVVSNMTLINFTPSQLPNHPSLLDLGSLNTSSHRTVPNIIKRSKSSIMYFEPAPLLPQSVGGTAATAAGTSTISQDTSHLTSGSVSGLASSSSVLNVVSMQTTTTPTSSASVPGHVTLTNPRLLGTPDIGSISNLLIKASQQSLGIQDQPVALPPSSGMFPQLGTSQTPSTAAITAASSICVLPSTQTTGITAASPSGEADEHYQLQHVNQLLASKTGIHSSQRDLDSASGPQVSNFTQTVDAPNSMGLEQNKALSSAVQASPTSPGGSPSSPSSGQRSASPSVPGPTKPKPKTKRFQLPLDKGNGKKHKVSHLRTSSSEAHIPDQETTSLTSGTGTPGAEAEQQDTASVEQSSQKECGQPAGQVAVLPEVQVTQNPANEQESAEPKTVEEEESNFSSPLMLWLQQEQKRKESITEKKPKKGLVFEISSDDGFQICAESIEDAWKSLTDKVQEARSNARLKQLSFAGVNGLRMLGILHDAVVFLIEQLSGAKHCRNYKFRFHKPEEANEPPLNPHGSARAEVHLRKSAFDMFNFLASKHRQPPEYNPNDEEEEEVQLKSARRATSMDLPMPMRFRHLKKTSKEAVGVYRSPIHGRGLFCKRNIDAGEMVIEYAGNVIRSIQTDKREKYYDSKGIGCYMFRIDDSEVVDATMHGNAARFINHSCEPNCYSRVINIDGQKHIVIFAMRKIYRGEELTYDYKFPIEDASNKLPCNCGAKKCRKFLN

**Q.** How did the activity change, negative = inhibition turn out when COc1ccccc1OP(C)(=O)Nc1ccc(C)c(C)c1 (stereo not drawn) was run?
**A.** inactive: -4.39%

**Q.** For COc1ccc(OP(C)(=O)Nc2ccccc2Br)cc1 (stereo not drawn), which activity change, negative = inhibition is on record?
**A.** inactive: 2.87%

**Q.** Cc1cc(C)cc(OP(C)(=O)Nc2cccc(C(F)(F)F)c2)c1 (stereo not drawn) was tested. Which activity change, negative = inhibition did it give?
**A.** inactive: -0.34%

**Q.** How did the activity change, negative = inhibition turn out when CP(=O)(Nc1ccccc1)Oc1ccc(F)cc1 (stereo not drawn) was run?
**A.** inactive: -1.94%

**Q.** CCCCCOc1ccc(NP(C)(=O)Oc2ccc(Cl)cc2Cl)cc1 (stereo not drawn) was tested. Which activity change, negative = inhibition did it give?
**A.** inactive: 7.05%

**Q.** With CCN(CC)CCCOC(=O)C(O)(c1ccccc1)C1CCCCC1 (stereo not drawn) as the molecule, how does the activity change, negative = inhibition read?
**A.** inactive: -2.37%

**Q.** Which activity change, negative = inhibition does the source give for CCOC(=O)c1ccc(NP(C)(=O)Oc2ccc(F)cc2)cc1 (stereo not drawn) here?
**A.** inactive: -1.29%

**Q.** How did the activity change, negative = inhibition turn out when COc1ccc(OP(C)(=O)Nc2ccc(SC(F)(F)F)cc2)cc1 (stereo not drawn) was run?
**A.** inactive: -3.53%

**Q.** For O=C(OCCN1CCN(CCOCc2ccccc2)CC1)C(O)(c1ccccc1)c1ccccc1, which activity change, negative = inhibition is on record?
**A.** inactive: 4.79%

**Q.** CP(=O)(Nc1ccccc1F)Oc1ccccc1 (stereo not drawn) was tested. Which activity change, negative = inhibition did it give?
**A.** inactive: 0.0583%

**Q.** With CC(C)c1ccc(OP(C)(=O)Nc2ccc(SC(F)(F)F)cc2)cc1 (stereo not drawn) as the molecule, how does the activity change, negative = inhibition read?
**A.** inactive: 2.81%

**Q.** Which activity change, negative = inhibition does the source give for Cc1ccccc1NP(C)(=O)Nc1ccccc1C here?
**A.** inactive: 3.28%

**Q.** CP(=O)(Nc1ccc2c(c1)OCCO2)Oc1ccccc1 (stereo not drawn) was tested. Which activity change, negative = inhibition did it give?
**A.** inactive: 6.05%

**Q.** CCOP(C)(=S)SCC(=O)NC(C)(CC)C(=O)O (stereo not drawn) was tested. Which activity change, negative = inhibition did it give?
**A.** inactive: -2.45%

**Q.** CP(=O)(Nc1ccc(SC(F)(F)F)cc1)Oc1ccc(F)cc1 (stereo not drawn) was tested. Which activity change, negative = inhibition did it give?
**A.** inactive: -10.5%

**Q.** With O=[N+]([O-])c1ccc(OP2(=O)COCCO2)cc1 (stereo not drawn) as the molecule, how does the activity change, negative = inhibition read?
**A.** inactive: -0.0424%

**Q.** Which activity change, negative = inhibition does the source give for Cc1cc(-c2cccc3ccccc23)c(C)cn1.O=[N+]([O-])c1cc([N+](=O)[O-])c(O)c([N+](=O)[O-])c1 here?
**A.** inactive: -8.03%

**Q.** Which activity change, negative = inhibition does the source give for CN(C)CCOC(=O)C(O)(c1ccccc1)C1CCCCC1 (stereo not drawn) here?
**A.** inactive: 7.19%

**Q.** For COc1ccc(NP(C)(=O)Oc2ccccc2OC)cc1 (stereo not drawn), which activity change, negative = inhibition is on record?
**A.** inactive: -4.74%

**Q.** How did the activity change, negative = inhibition turn out when COc1ccc(OP(C)(=O)Nc2cccc(Br)c2)cc1 (stereo not drawn) was run?
**A.** inactive: -14.8%

**Q.** With CP(=O)(Nc1ccc(SC(F)(F)F)cc1)Oc1ccccc1 (stereo not drawn) as the molecule, how does the activity change, negative = inhibition read?
**A.** inactive: 11%

**Q.** Which activity change, negative = inhibition does the source give for CCCOc1ccc(NP(C)(=O)Oc2ccc(Cl)cc2)cc1 (stereo not drawn) here?
**A.** inactive: 11.2%

**Q.** Which activity change, negative = inhibition does the source give for CN1CCCCC1COC(=O)C1(O)c2ccccc2CCc2ccccc21 (stereo not drawn) here?
**A.** inactive: 4.83%

**Q.** How did the activity change, negative = inhibition turn out when COc1ccccc1OP(C)(=O)Nc1c(C)cccc1C (stereo not drawn) was run?
**A.** inactive: -3.3%

**Q.** O=[N+]([O-])c1cc([N+](=O)[O-])c(Nc2nnnn2CCO)c([N+](=O)[O-])c1 was tested. Which activity change, negative = inhibition did it give?
**A.** inactive: 1.52%

**Q.** Cc1nc2ccc3ccccc3c2s1.O=[N+]([O-])c1cc([N+](=O)[O-])c(O)c([N+](=O)[O-])c1 was tested. Which activity change, negative = inhibition did it give?
**A.** inactive: -1.28%

**Q.** For O=[N+]([O-])c1cc([N+](=O)[O-])c(-n2nnc3ccccc32)c([N+](=O)[O-])c1, which activity change, negative = inhibition is on record?
**A.** inactive: -0.55%

**Q.** Cc1ccc(C)c(NP(C)(=O)Oc2ccccc2)c1 (stereo not drawn) was tested. Which activity change, negative = inhibition did it give?
**A.** inactive: -6.16%

**Q.** Which activity change, negative = inhibition does the source give for CP(=O)(Nc1cccc(Br)c1)Oc1ccccc1 (stereo not drawn) here?
**A.** inactive: 1.76%

**Q.** Which activity change, negative = inhibition does the source give for Cc1cc(C)cc(OP(C)(=O)Nc2ccccn2)c1 (stereo not drawn) here?
**A.** inactive: 7.96%

**Q.** For CCOC(=O)c1ccc(NP(C)(=O)Oc2cc(C)cc(C)c2)cc1 (stereo not drawn), which activity change, negative = inhibition is on record?
**A.** inactive: 8.09%

**Q.** Cc1cc(C)cc(OP(C)(=O)Nc2ccc(C)cc2C)c1 (stereo not drawn) was tested. Which activity change, negative = inhibition did it give?
**A.** inactive: 1.35%

**Q.** For COc1ccccc1OP(C)(=O)Nc1cccc(Br)c1 (stereo not drawn), which activity change, negative = inhibition is on record?
**A.** inactive: 1.75%

**Q.** Which activity change, negative = inhibition does the source give for CC1=NCCc2c1[nH]c1ccccc21.O=[N+]([O-])c1cc([N+](=O)[O-])c(O)c([N+](=O)[O-])c1 here?
**A.** inactive: 10.3%

**Q.** With O=[N+]([O-])c1cccc([N+](=O)[O-])c1 as the molecule, how does the activity change, negative = inhibition read?
**A.** inactive: 8.25%

**Q.** Cc1cc(C)cc(OP(C)(N)=O)c1 (stereo not drawn) was tested. Which activity change, negative = inhibition did it give?
**A.** inactive: 5.87%

**Q.** How did the activity change, negative = inhibition turn out when COc1ccccc1OP(C)(=O)Nc1cc(Cl)ccc1C (stereo not drawn) was run?
**A.** inactive: -3.07%

**Q.** Which activity change, negative = inhibition does the source give for COc1ccc(OP(C)(=O)Nc2cccc(F)c2)cc1 (stereo not drawn) here?
**A.** inactive: 10.7%

**Q.** COc1ccccc1OP(C)(=O)Nc1ccc(C)cc1 (stereo not drawn) was tested. Which activity change, negative = inhibition did it give?
**A.** inactive: 1.95%

**Q.** For Cc1ccc(NP(C)(=O)Oc2ccccc2)c(C)c1 (stereo not drawn), which activity change, negative = inhibition is on record?
**A.** inactive: -2.74%

**Q.** CCOC(=O)c1ccc(NP(C)(=O)Oc2ccccc2)cc1 (stereo not drawn) was tested. Which activity change, negative = inhibition did it give?
**A.** inactive: 8.24%

**Q.** For O=[N+]([O-])c1ccc2c(c1)C=Nc1ccccc1O2, which activity change, negative = inhibition is on record?
**A.** inactive: -0.296%

**Q.** For CC(C)(C)c1ccc(OP(C)(=O)Nc2ccc(SC(F)(F)F)cc2)cc1 (stereo not drawn), which activity change, negative = inhibition is on record?
**A.** inactive: 8.61%

**Q.** Which activity change, negative = inhibition does the source give for Cc1cccc(C)c1OP(C)(N)=O (stereo not drawn) here?
**A.** inactive: -2.93%

**Q.** How did the activity change, negative = inhibition turn out when CCN(CC)CCCOC(=O)C(O)(c1ccccc1)c1ccccc1 was run?
**A.** inactive: 2.01%

**Q.** How did the activity change, negative = inhibition turn out when CP(=O)(Nc1ccccn1)Oc1ccc(Cl)cc1 (stereo not drawn) was run?
**A.** inactive: 0.476%

**Q.** Which activity change, negative = inhibition does the source give for CCOC(=O)c1ccc(NP(C)(=O)Oc2ccc(OC)cc2)cc1 (stereo not drawn) here?
**A.** inactive: 3.88%

**Q.** CN(C)CCS was tested. Which activity change, negative = inhibition did it give?
**A.** inactive: -3.1%

**Q.** CCOP(C)(=S)SCC(=O)NC(C)C(=O)O (stereo not drawn) was tested. Which activity change, negative = inhibition did it give?
**A.** inactive: -9.14%

**Q.** CCc1ccc(OP(C)(=O)N2CCN(c3ccc([N+](=O)[O-])cc3)CC2)cc1 (stereo not drawn) was tested. Which activity change, negative = inhibition did it give?
**A.** inactive: 8.69%

**Q.** CP(=O)(NC(=O)Nc1ccccc1)Oc1ccccc1 (stereo not drawn) was tested. Which activity change, negative = inhibition did it give?
**A.** inactive: -2.12%

**Q.** Cc1cc(C)cc(OP(C)(=O)Nc2ccc(SC(F)(F)F)cc2)c1 (stereo not drawn) was tested. Which activity change, negative = inhibition did it give?
**A.** inactive: 13.6%

**Q.** Which activity change, negative = inhibition does the source give for CP(=O)(Nc1ccc(SC(F)(F)F)cc1)Oc1ccc(Cl)cc1 (stereo not drawn) here?
**A.** inactive: 0.345%

**Q.** Cc1cccc(C)c1OP(C)(=O)Nc1ccc(SC(F)(F)F)cc1 (stereo not drawn) was tested. Which activity change, negative = inhibition did it give?
**A.** inactive: 3.38%

**Q.** For CP(=O)(Oc1ccccc1)OC(c1ccccc1)C(F)(F)F (stereo not drawn), which activity change, negative = inhibition is on record?
**A.** inactive: -0.894%

**Q.** CP(=O)(Nc1ccccc1Br)Oc1ccccc1 (stereo not drawn) was tested. Which activity change, negative = inhibition did it give?
**A.** inactive: 10.1%

**Q.** How did the activity change, negative = inhibition turn out when COc1ccccc1OP(C)(=O)Nc1ccccc1 (stereo not drawn) was run?
**A.** inactive: 12.1%

**Q.** How did the activity change, negative = inhibition turn out when CP(=S)(Nn1cnnc1)Oc1ccccc1 (stereo not drawn) was run?
**A.** inactive: 2.15%

Source: PubChem BioAssay AID2662 (National Center for Advancing Translational Sciences (NCATS), 2010)
